Antibody variant affinities, Ab-91 heavy chain, assay 2

Source: Engelhart et al. 2022 (doi:10.1038/s41597-022-01779-4), MIT Lincoln Laboratory and A-Alpha Bio; data file from the FLAb repository.

All variants were tested on one target, the spike HR2 peptide PDVDLGDISGINAS (SARS-CoV-2).

Ab-91 is the parent antibody, in scFv form: VL, then three GGGGS repeats, then VH. The light chain is unchanged in all variants.
VL: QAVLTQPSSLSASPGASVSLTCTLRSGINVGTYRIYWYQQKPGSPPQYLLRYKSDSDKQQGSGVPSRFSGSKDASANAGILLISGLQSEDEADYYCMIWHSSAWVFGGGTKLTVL
VH: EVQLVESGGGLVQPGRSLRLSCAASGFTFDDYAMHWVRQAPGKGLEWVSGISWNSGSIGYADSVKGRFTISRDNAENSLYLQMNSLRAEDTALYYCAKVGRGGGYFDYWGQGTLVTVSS

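The parent was found by panning a naive human phage display library on the peptide. Variants in AAYL51 differ from the parent at up to three CDR positions; double and triple changes were sampled at random. The assay is AlphaSeq: two haploid yeast populations carry antibody and antigen on their surface. After mating in shaken culture at 30 °C for 16 h, diploids were selected and their barcode pairs sequenced. The ratio of observed to expected reads was calibrated, replicate by replicate, on BCL2-family standards whose Kd was known from biolayer interferometry. There are three technical replicates.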

Changes read parent residue, position, new residue, counted from the first residue of the VH shown. Scale: log10 of Kd in nM, estimated from mating counts; low values are strong binders. "nd" means that the variant was in the library but no mating with the target was seen in that replicate; the authors take this as a sign of poor binding, and no number exists. As a blank, each scFv also met three strains without target: over library AAYL51, 21% of these pairings were detected, typically at 4.54 and seldom below 3.26. For each scFv, signals with the empty controls are counted beside the result, with their mean in brackets. Parent in this assay: reference entry 1.86, copy in this library 0.88.

changes | log10 Kd (nM) by replicate | signal with controls
G26P/A61G/S63G | 6.03 6.54 5.26 | 1 of 9 (5.27)
G26K/V99H/G104R | 5.70 5.03 4.00 | 7 of 9 (5.15)
G50C/I51L/D62C | 4.00 nd nd | 1 of 9 (3.70)
M34G/N54F/D107P | 5.47 nd nd | 5 of 9 (4.48)
F27W/D31K/F106V | nd nd nd | 0 of 9
F27W/A61R/G103E | nd nd nd | 1 of 9 (3.67)
H35P/W53L/G56T | 5.54 nd 4.90 | 4 of 9 (4.62)
S57H/A61Y/G103M | nd 4.83 nd | 1 of 9 (3.48)
N54M/S63D/V99D | 4.36 5.34 nd | 5 of 9 (4.71)
F29I/W53C/V64W | 5.19 nd nd | 1 of 9 (4.68)
D31L/G50H/K65Y | 4.37 nd nd | 0 of 9
T28F/W53Q/Y108P | nd 4.31 nd | 1 of 9 (3.29)
T28Q/W53I/S57L | 3.59 4.61 nd | 0 of 9
W53N | 4.12 4.17 4.91 | 8 of 9 (4.70)
G56V/S57Y/G102V | nd nd nd | 2 of 9 (5.16)
D31C/S57K/Y105W | 4.36 5.54 nd | 1 of 9 (3.99)
T28Q/Y32V/A33Q | nd nd nd | 0 of 9
R101Q/G102T/Y105W | 2.08 2.35 1.58 | 2 of 9 (3.44)
F27E/I58S/G104W | nd 4.72 nd | 0 of 9
G26D/T28R/R101T | nd 4.42 nd | 2 of 9 (3.68)
A33F/G59R/V99H | nd nd nd | 0 of 9
F29E/I51R/Y108Q | nd nd nd | 0 of 9
G26K/S63C/V99Q | nd nd 5.37 | 1 of 9 (4.67)
S52W/W53I/G102C | 5.57 4.95 nd | 5 of 9 (4.63)
A33S/S63L | 0.90 0.96 0.26 | 2 of 9 (4.51)
D30N/G50K/N54P | nd nd nd | 2 of 9 (4.22)
G50L/G56R/F106S | nd nd nd | 1 of 9 (3.77)
A33N/D62L/R101I | nd nd nd | 2 of 9 (2.42)
F29Y/Y32K/N54A | 4.32 4.55 4.26 | 3 of 9 (4.52)
V64Q/G104D | 4.30 5.01 5.89 | 7 of 9 (5.21)
N54A/S55F/S63A | nd nd nd | 0 of 9
I58L/A61T/G103H | 5.76 nd nd | 1 of 9 (4.16)
T28D/Y60F/Y108S | 1.61 1.61 1.13 | 8 of 9 (5.59)
Y32F/S55R/D107H | nd nd nd | 2 of 9 (3.67)
D62P/V99W/G102V | 4.61 4.43 nd | 4 of 9 (4.11)
Y32C/S52I/G100N | 5.34 5.47 nd | 1 of 9 (4.32)
F27C/I51L | nd nd 3.25 | 1 of 9 (3.04)
T28R/M34G/H35S | nd nd nd | 0 of 9
A61L/K65T/G104P | nd 5.71 nd | 3 of 9 (4.72)
W53S/V64S/G103I | nd nd nd | 2 of 9 (5.50)
G56Q/A61L/V64L | nd nd nd | 1 of 9 (2.96)
D31Q/I51L/G102Y | 3.20 3.34 2.11 | 0 of 9
A33F/Y60S/K65W | nd nd nd | 0 of 9
V64D/G100Q/G102S | nd nd 4.37 | 2 of 9 (4.90)
S57A/S63H/G102L | nd 3.87 nd | 1 of 9 (4.76)

The 3 strongest on average among those seen in every replicate, once more:

| changes | log10 Kd (nM) by replicate | signal with controls |
|---|---|---|
| A33S/S63L | 0.90 0.96 0.26 | 2 of 9 (4.51) |
| T28D/Y60F/Y108S | 1.61 1.61 1.13 | 8 of 9 (5.59) |
| R101Q/G102T/Y105W | 2.08 2.35 1.58 | 2 of 9 (3.44) |